This assay deals with KO99L cells. The assay is described as follows: Combination studies with COMPOUND-JP, WST-1 viability, Chou-Talalay combination index. In kind it is cell-based, murine. The following applies: 48 h, suboptimal concentrations, in combination with COMPOUND-JP.

We go through 1 molecule from patent publication US10172835B2, “Anticancer agent composition” (J-Pharma Co., Ltd., priority 2014, dated 2019).

Regarding `CC(C)C[C@H](NC(=O)[C@H](Cc1ccccc1)NC(=O)c1cnccn1)B(O)O` [velcade, bortezomib, reference compound], the “combination effect with COMPOUND-JP on metabolic activity/cell survival (Combination Index)” value is listed as “potentiate”.
